Molecular target: microtubule (in vitro reconstituted, taxol-stabilised)
Test: cell-based or functional assay

Question: Which results are given for “His-p68-CaM fusion protein (Histidine-tagged p68-CaM, expressed in E. coli) (from UniProt P0DP23 1-149)”?
Answer: % of gliding microtubules (n = 50), ATP: 85.5%; Maximum gliding speed, ATP: 0.13 µm/min; Mean gliding speed, ATP: 0.09 µm/min

Source: patent US11214624
